Patent publication US11618753B2 (priority 2018, dated 2023)

Sequences of proteins named here, by UniProt entry; tags and fusion partners are left off. A change or cut given only in a name is not applied to a line headed by its entry.
UniProt O00329: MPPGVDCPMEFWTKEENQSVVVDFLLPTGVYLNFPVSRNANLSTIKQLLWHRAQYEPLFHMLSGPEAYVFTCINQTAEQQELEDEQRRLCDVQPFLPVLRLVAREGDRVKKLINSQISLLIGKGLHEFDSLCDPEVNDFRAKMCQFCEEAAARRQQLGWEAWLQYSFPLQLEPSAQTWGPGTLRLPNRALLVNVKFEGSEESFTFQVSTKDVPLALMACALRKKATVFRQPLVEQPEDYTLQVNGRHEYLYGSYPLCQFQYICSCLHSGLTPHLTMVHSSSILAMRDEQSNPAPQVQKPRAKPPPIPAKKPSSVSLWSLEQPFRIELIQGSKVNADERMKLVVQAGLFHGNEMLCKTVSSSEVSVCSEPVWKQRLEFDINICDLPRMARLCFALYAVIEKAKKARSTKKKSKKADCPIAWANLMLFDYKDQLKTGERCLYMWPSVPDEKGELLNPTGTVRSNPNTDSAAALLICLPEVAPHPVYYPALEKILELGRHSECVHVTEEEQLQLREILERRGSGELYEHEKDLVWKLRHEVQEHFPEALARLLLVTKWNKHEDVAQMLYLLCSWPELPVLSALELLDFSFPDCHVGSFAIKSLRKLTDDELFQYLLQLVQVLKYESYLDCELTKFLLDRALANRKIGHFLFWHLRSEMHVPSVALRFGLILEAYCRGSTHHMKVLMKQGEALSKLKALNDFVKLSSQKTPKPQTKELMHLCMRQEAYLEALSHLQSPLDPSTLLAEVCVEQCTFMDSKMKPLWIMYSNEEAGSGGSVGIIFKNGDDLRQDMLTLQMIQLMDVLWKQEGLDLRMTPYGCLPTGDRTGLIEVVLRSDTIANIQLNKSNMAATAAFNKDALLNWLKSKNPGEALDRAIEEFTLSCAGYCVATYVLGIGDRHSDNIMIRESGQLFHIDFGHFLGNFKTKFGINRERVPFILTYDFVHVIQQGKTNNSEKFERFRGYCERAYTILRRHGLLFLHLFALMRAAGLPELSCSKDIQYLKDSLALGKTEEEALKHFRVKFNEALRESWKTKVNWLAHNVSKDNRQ

The molecules below were run against GST-tagged PIK3Cδ in complex with PIK3R1 (Homo sapiens (Human), UniProt O00329) (assay: biochemical).

Structure (SMILES) | IC50 [µM]
COc1ncc(-c2cc(CN3CCC(F)(F)CC3)c3c(N)ncnn23)cc1C(=O)N[C@@H]1CN(C(=O)OCC(F)(F)F)C[C@@H]1F [Example 1553, 2,2,2-trifluoroethyl (3R,4S)-3-(5-{4-amino-5-[(4,4-difluoropiperidin-1-yl)methyl]pyrrolo[2,1-f][1,2,4]triazin-7-yl}-2-methoxypyridine-3-amido)-4-fluoropyrrolidine-1-carboxylate] | > 15
COc1ncc(-c2cc(CN3CCC(F)(F)CC3)c3c(N)ncnn23)cc1C(=O)N[C@@H]1CN(C(=O)[C@H]2CC2(F)F)C[C@@H]1F [Example 1560, 5-{4-amino-5-[(4,4-difluoropiperidin-1-yl)methyl]pyrrolo[2,1-f][1,2,4]triazin-7-yl}-N-[(3R,4S)-1-[(1R)-2,2-difluorocyclopropanecarbonyl]-4-fluoropyrrolidin-3-yl]-2-methoxypyridine-3-carboxamide] | > 15
Cc1c(F)cc(-c2cc(CN3CC(F)(F)C3)c3c(N)ncnn23)cc1C(=O)N[C@@H]1CN(C(=O)C2CC(F)(F)C2)C[C@@H]1F [Example 1562, 5-{4-amino-5-[(3,3-difluoroazetidin-1-yl)methyl]pyrrolo[2,1-f][1,2,4]triazin-7-yl}-N-[(3R,4S)-1-(3,3-difluorocyclobutanecarbonyl)-4-fluoropyrrolidin-3-yl]-3-fluoro-2-methylbenzamide] | 5.18
Cc1c(F)cc(-c2cc(CN3CC(F)(F)C3)c3c(N)ncnn23)cc1C(=O)N[C@@H]1CN(C(=O)C2CC2(F)F)C[C@@H]1F (stereo partly drawn) [Example 1564, 5-{4-amino-5-[(3,3-difluoroazetidin-1-yl)methyl]pyrrolo[2,1-f][1,2,4]triazin-7-yl}-N-[(3R,4S)-1-(2,2-difluorocyclopropanecarbonyl)-4-fluoropyrrolidin-3-yl]-3-fluoro-2-methylbenzamide] | > 15
COc1ncc(-c2cc(C3CC3)c3c(N)ncnn23)cc1C(=O)N[C@@H]1CN(C(=O)[C@@](C)(O)C(F)(F)F)C[C@@H]1F [Example 1567, 5-{4-amino-5-cyclopropylpyrrolo[2,1-f][1,2,4]triazin-7-yl}-N-[(3R,4S)-4-fluoro-1-[(2R)-3,3,3-trifluoro-2-hydroxy-2-methylpropanoyl]pyrrolidin-3-yl]-2-methoxypyridine-3-carboxamide] | 3.17
Cc1ccc(-c2cc(CN3CCOCC3)c3c(N)ncnn23)cc1C(=O)N[C@@H]1CN(C(=O)OCC(F)(F)F)C[C@@H]1F [Example 1577, 2,2,2-trifluoroethyl (3R,4S)-3-(5-{4-amino-5-[(morpholin-4-yl)methyl]pyrrolo[2,1-f][1,2,4]triazin-7-yl}-2-methylbenzamido)-4-fluoropyrrolidine-1-carboxylate] | > 15
Cc1cc(F)c(-c2cc(CN3CCC(F)(F)CC3)c3c(N)ncnn23)cc1C(=O)N[C@@H]1CN(C(=O)C2CC(F)(F)C2)C[C@@H]1F [Example 1578, 5-{4-amino-5-[(4,4-difluoropiperidin-1-yl)methyl]pyrrolo[2,1-f][1,2,4]triazin-7-yl}-N-[(3R,4S)-1-(3,3-difluorocyclobutanecarbonyl)-4-fluoropyrrolidin-3-yl]-4-fluoro-2-methylbenzamide] | > 15
COc1ncc(-c2cc(CN3CCC(F)(F)C3)c3c(N)ncnn23)cc1C(=O)N[C@@H]1CN(C(=O)C2CC(F)(F)C2)C[C@@H]1F [Example 1581, 5-{4-amino-5-[(3,3-difluoropyrrolidin-1-yl)methyl]pyrrolo[2,1-f][1,2,4]triazin-7-yl}-N-[(3R,4S)-1-(3,3-difluorocyclobutanecarbonyl)-4-fluoropyrrolidin-3-yl]-2-methoxypyridine-3-carboxamide] | > 15
COc1ncc(-c2ccc3c(N)ncnn23)cc1C(=O)N[C@@H]1CN(C(=O)[C@@](C)(O)C(F)(F)F)C[C@@H]1F [Example 1595, 5-{4-aminopyrrolo[2,1-f][1,2,4]triazin-7-yl}-N-[(3R,4S)-4-fluoro-1-[(2R)-3,3,3-trifluoro-2-hydroxy-2-methylpropanoyl]pyrrolidin-3-yl]-2-methoxypyridine-3-carboxamide] | > 15
COc1ncc(-c2cc(OC(F)F)c3c(N)ncnn23)cc1C(=O)N[C@@H]1CN(C(=O)[C@@](C)(O)C(F)(F)F)C[C@@H]1F [Example 1606, 5-[4-amino-5-(difluoromethoxy)pyrrolo[2,1-f][1,2,4]triazin-7-yl]-N-[(3R,4S)-4-fluoro-1-[(2R)-3,3,3-trifluoro-2-hydroxy-2-methylpropanoyl]pyrrolidin-3-yl]-2-methoxypyridine-3-carboxamide] | 0.437
COc1ncc(-c2cc(CN3CC(F)(F)C3)c3c(N)ncnn23)cc1C(=O)N[C@@H]1CN(C(=O)[C@@](C)(O)C(F)(F)F)C[C@@H]1F [Example 1616, 5-{4-amino-5-[(3,3-difluoroazetidin-1-yl)methyl]pyrrolo[2,1-f][1,2,4]triazin-7-yl}-N-[(3R,4S)-4-fluoro-1-[(2R)-3,3,3-trifluoro-2-hydroxy-2-methylpropanoyl]pyrrolidin-3-yl]-2-methoxypyridine-3-carboxamide] | 14.8
COc1ncc(-c2cc(CN3CCC(F)(F)CC3)c3c(N)ncnn23)cc1C(=O)N[C@@H]1CN(C(=O)c2ccccc2F)C[C@@H]1F [Example 1626, 5-{4-amino-5-[(4,4-difluoropiperidin-1-yl)methyl]pyrrolo[2,1-f][1,2,4]triazin-7-yl}-N-[(3R,4S)-4-fluoro-1-(2-fluorobenzoyl)pyrrolidin-3-yl]-2-methoxypyridine-3-carboxamide] | 6.27
COc1cc(F)c(-c2cc(CN3CCC(F)(F)CC3)c3c(N)ncnn23)cc1C(=O)N[C@@H]1CN(C(=O)C2CC(F)(F)C2)C[C@@H]1F [Example 1633, 5-{4-amino-5-[(4,4-difluoropiperidin-1-yl)methyl]pyrrolo[2,1-f][1,2,4]triazin-7-yl}-N-[(3R,4S)-1-(3,3-difluorocyclobutanecarbonyl)-4-fluoropyrrolidin-3-yl]-4-fluoro-2-methoxybenzamide] | 5.11
COc1cc(F)c(-c2cc(CN3CCC(F)(F)CC3)c3c(N)ncnn23)cc1C(=O)N[C@@H]1CN(C(=O)C(C)(C)C(F)(F)F)C[C@@H]1F [Example 1638, 5-{4-amino-5-[(4,4-difluoropiperidin-1-yl)methyl]pyrrolo[2,1-f][1,2,4]triazin-7-yl}-4-fluoro-N-[(3R,4S)-4-fluoro-1-(3,3,3-trifluoro-2,2-dimethylpropanoyl)pyrrolidin-3-yl]-2-methoxybenzamide] | 7.85
COc1cc(F)c(-c2cc(CN3CCC(C(F)(F)F)CC3)c3c(N)ncnn23)cc1C(=O)N[C@@H]1CN(C(=O)[C@@](C)(O)C(F)(F)F)C[C@@H]1F [Example 1639, 5-(4-amino-5-{[4-(trifluoromethyl)piperidin-1-yl]methyl}pyrrolo[2,1-f][1,2,4]triazin-7-yl)-4-fluoro-N-[(3R,4S)-4-fluoro-1-[(2R)-3,3,3-trifluoro-2-hydroxy-2-methylpropanoyl]pyrrolidin-3-yl]-2-methoxybenzamide] | > 15
Cc1ccc(-c2cc(CN3CCC(C(F)(F)F)CC3)c3c(N)ncnn23)cc1C(=O)N[C@@H]1CN(C(=O)[C@@](C)(O)C(F)(F)F)C[C@@H]1F [Example 1647, 5-(4-amino-5-{[4-(trifluoromethyl)piperidin-1-yl]methyl}pyrrolo[2,1-f][1,2,4]triazin-7-yl)-N-[(3R,4S)-4-fluoro-1-[(2R)-3,3,3-trifluoro-2-hydroxy-2-methylpropanoyl]pyrrolidin-3-yl]-2-methylbenzamide] | 7.94
Cc1cc(F)c(-c2cc(CN3CCC(F)(F)CC3)c3c(N)ncnn23)cc1C(=O)N[C@@H]1CN(C(=O)C2CC2(F)F)C[C@@H]1F (stereo partly drawn) [Example 1655, 5-{4-amino-5-[(4,4-difIuoropiperidin-1-yl)methyl]pyrrolo[2,1-f][1,2,4]triazin-7-yl}-N-[(3R,4S)-1-(2,2-difluorocyclopropanecarbonyl)-4-fluoropyrrolidin-3-yl]-4-fluoro-2-methylbenzamide] | 5.57
Cc1cc(F)c(-c2cc(CN3CCC(F)(F)CC3)c3c(N)ncnn23)cc1C(=O)N[C@@H]1CN(C(=O)CC(O)(C(F)(F)F)C(F)(F)F)C[C@@H]1F [Example 1656, 5-{4-amino-5-[(4,4-difIuoropiperidin-1-yl)methyl]pyrrolo[2,1-f][1,2,4]triazin-7-yl}-4-fluoro-N-[(3R,4S)-4-fluoro-1-[4,4,4-trifluoro-3-hydroxy-3-(trifluoromethyl)butanoyl]pyrrolidin-3-yl]-2-methylbenzamide] | 5.26
Cc1cc(F)c(-c2cc(CN3CCC(F)(F)CC3)c3c(N)ncnn23)cc1C(=O)N[C@@H]1CN(C(=O)[C@@](C)(O)C(F)(F)F)C[C@@H]1F [Example 1658, 5-{4-amino-5-[(4,4-difIuoropiperidin-1-yl)methyl]pyrrolo[2,1-f][1,2,4]triazin-7-yl}-4-fluoro-N-[(3R,4S)-4-fluoro-1-[(2R)-3,3,3-trifluoro-2-hydroxy-2-methylpropanoyl]pyrrolidin-3-yl]-2-methylbenzamide] | 9.15
Cc1cc(F)c(-c2cc(CN3CCC(F)(F)CC3)c3c(N)ncnn23)cc1C(=O)N[C@@H]1CN(C(=O)CC(C)C)C[C@@H]1F [Example 1659, 5-{4-amino-5-[(4,4-difIuoropiperidin-1-yl)methyl]pyrrolo[2,1-f][1,2,4]triazin-7-yl}-4-fluoro-N-[(3R,4S)-4-fluoro-1-(3-methylbutanoyl)pyrrolidin-3-yl]-2-methylbenzamide] | > 15
Cc1cc(F)c(-c2cc(CN3CCC(F)(F)CC3)c3c(N)ncnn23)cc1C(=O)N[C@@H]1CN(C(=O)C(C)(C)F)C[C@@H]1F [Example 1660, 5-{4-amino-5-[(4,4-difluoropiperidin-1-yl)methyl]pyrrolo[2,1-f][1,2,4]triazin-7-yl}-4-fluoro-N-[(3R,4S)-4-fluoro-1-(2-fluoro-2-methylpropanoyl)pyrrolidin-3-yl]-2-methylbenzamide] | > 15
COc1ncc(-c2cc(C(F)(F)F)c3c(N)ncnn23)cc1C(=O)NC1CCCC(c2ccccc2)C1 (stereo not shown) [Example 1689, 5-(4-amino-5-(trifluoromethyl)pyrrolo[2,1-f][1,2,4]triazin-7-yl)-2-methoxy-N-(3-phenylcyclohexyl)nicotinamide] | > 5
